Experimental data taken from PubChem BioAssay (NCI).
Values joined by “and” are separate entries in the source; they are usually repeats but may differ in a detail not shown here. Equal values may be shown once. This is a selection; strong and weak results do not stand in their true shares. Active and inactive are the calls of the source. Rule as the data show it: active = growth inhibition above about 70%; inactive = the rest.

What was measured:
[1] = NCI Yeast Anticancer Drug Screen. Data for the rad50 strain (AID 155);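 also: 0% = growth of vehicle-only cultures of the same strain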; conditions: S. cerevisiae rad50 strain growth inhibition; at 50.0 µM; stronger effect = higher value
[2] = NCI Yeast Anticancer Drug Screen. Data for the mec2-1 strain (AID 157); conditions: S. cerevisiae mec2-1 strain, at 50.0 µM, stronger effect = higher value
[3] = NCI Yeast Anticancer Drug Screen. Data for the sgs1 mgt1 strain (AID 161);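 also: 0% = growth of cultures given vehicle only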; conditions: S. cerevisiae sgs1 mgt1 strain, at 50.0 µM, stronger effect = higher value
[4] = NCI Yeast Anticancer Drug Screen. Data for the cln2 rad14 strain (AID 165);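 also: 0% = growth equal to vehicle treated cultures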; conditions: S. cerevisiae cln2 rad14 strain, at 50.0 µM, stronger effect = higher value
[5] = NCI Yeast Anticancer Drug Screen. Data for the bub3 strain (AID 167); conditions: S. cerevisiae bub3 mutant strain, at 50.0 µM, stronger effect = higher value
[6] = NCI Yeast Anticancer Drug Screen. Data for the mlh1 rad18 strain (AID 175); conditions: S. cerevisiae mlh1 rad18 strain growth inhibition; at 50.0 µM; stronger effect = higher value

Measured: growth inhibition

CC1CCCCCN1CCCl (stereo unspecified)
inactive: [1] -3.5% | [2] 0.3% | [3] 2.05% | [4] -19.8% | [5] -13.7% | [6] 17%

CC1([N+](=O)[O-])COP(=O)(N(CCCl)CCCl)OC1 (stereo unspecified)
inactive: [1] -0.65% | [2] 10.2% | [3] 0.9% | [4] -58.6% | [5] -5.5% | [6] -16.6%

CC(C)([N+](=O)[O-])C(C)(C)[N+](=O)[O-]
inactive: [1] -12.7% | [2] 5.5% | [3] 0.35% | [4] -6.15% | [5] -2.9% | [6] 1.5%

NC(=O)Nc1cc([As](=O)(O)O)cc(I)c1O
inactive: [1] 8.65% | [2] 8.2% | [3] -40.1% | [4] 2.35% | [5] -11.6% | [6] -0.25%

CCOP(=O)(NC(=S)NNC(=O)c1ccncc1)OCC
inactive: [1] -2.15% | [2] 7.6% | [3] 0.35% | [4] -4.85% | [5] 21.1% | [6] -11.8%

C[As](=O)(O)c1cccc(C(=O)O)c1
inactive: [1] -24.4% | [2] -9.95% | [3] -23.2% | [4] -19.6% | [5] -19.2% | [6] 0.6%

Cn1c([N+](=O)[O-])cnc1COC(=O)N(CCCl)CCCl
inactive: [1] 6.65% | [2] -38.9% | [3] 2.9% | [4] -6.8% | [5] -8.2% | [6] -18.5%

CC(C(=O)NNc1ccc([N+](=O)[O-])cc1[N+](=O)[O-])C(O)C(C)C(=O)NNc1ccc([N+](=O)[O-])cc1[N+](=O)[O-] (stereo unspecified)
inactive: [1] 35% | [2] 7.05% | [3] 28.3% | [4] 14.8% | [5] 1.15% | [6] 15.9%

Cc1ccc(N[P@]2(Cl)=NP(Cl)(Cl)=N[P@@](Cl)(Nc3ccc(C)cc3)=NP(Cl)(Cl)=N2)cc1
inactive: [1] -1.15% | [2] -3.85% | [3] -5.9% | [4] -6.85% | [5] -2.95% | [6] 0.8%

c1ccc(C[S+]2CCCC2)cc1
inactive: [1] 8.85% | [2] -4% | [3] -4.25% | [4] 15.7% | [5] -18.4% | [6] 14.7%

Cc1ccc(NC(=S)NP(=O)(Oc2ccccc2)Oc2ccccc2)nc1
inactive: [1] 6.7% | [2] -7.65% | [3] -10.6% | [4] -7.05% | [5] -2.35% | [6] 4.25%

CCC(=O)C(CCN(C)C)(c1ccccc1)c1ccccc1
inactive: [1] -5.1% | [2] 17.8% | [3] 4.65% | [4] -5.6% | [5] -0.9% | [6] 34.6%

C/C(=N/Nc1ccc([N+](=O)[O-])cc1[N+](=O)[O-])c1cccc([N+](=O)[O-])c1
inactive: [1] 6.9% | [2] 6.3% | [3] 10.1% | [4] -27.8% | [5] 1.65% | [6] 5.65%

CC(=N/Nc1ccc([N+](=O)[O-])cc1[N+](=O)[O-])/C(C)=N/Nc1ccc([N+](=O)[O-])cc1[N+](=O)[O-]
inactive: [1] 0.65% | [2] 22.6% | [3] -17.8% | [4] -6.85% | [5] -0.7% | [6] 5.4%

ClCCNCc1ccccc1
inactive: [1] 46.5% | [2] -14.7% | [3] 5.7% | [4] 7.25% | [5] 5.25% | [6] 27.1%

n1[nH]nc2c1c1n[nH]nc1c1n[nH]nc21
inactive: [1] -31.7% | [2] -35.4% | [3] -29.1% | [4] -12.3% | [5] -31.6% | [6] -19.4%

Cc1cc(/C=N/N(C)C)ccc1N(CCCl)CCCl
inactive: [1] 12.8% | [2] 2.95% | [3] 13.2% | [4] -2.55% | [5] 6.45% | [6] 5.55%

O=[As](O)(O)CC(O)CO (stereo unspecified)
inactive: [1] 3.15% | [2] -15% | [3] 10.6% | [4] 23.4% | [5] 0.1% | [6] -5.3%

CCN(CCCl)CCOc1ccc([N+](=O)[O-])cc1
inactive: [1] 4.95% | [2] 6.35% | [3] 9.7% | [4] 2.4% | [5] 6.4% | [6] 14.8%

O=[As](O)(O)c1ccc([As](=O)(O)O)cc1
inactive: [1] -17.2% | [2] -23.2% | [3] -36.3% | [4] 21.6% | [5] -39.5% | [6] 8.9%

S=P1(Oc2ccccc2)NNP2(=NP(Cl)(Cl)=NP(Cl)(Cl)=N2)NN1 (stereo unspecified)
inactive: [1] 7.4% | [2] -6% | [3] -27.3% | [4] -24.7% | [5] 3.3% | [6] -1.35%

CCN(CC)CC(O)c1cc2ccccc2c2ccccc12 (stereo unspecified)
inactive: [1] 17.9% | [2] 2.9% | [3] 15.2% | [4] 3.25% | [5] 0.1% | [6] 20.6%

O=[N+]([O-])c1cc([N+](=O)[O-])c(O)c([N+](=O)[O-])c1
inactive: [1] 5.25% and 23.3% | [2] 10.6% and 28.5% | [3] -3.8% and 18.9% | [4] 4% and -8.25% | [5] -0.55% and 0.4% | [6] 17% and 52%

C=C(C)C(=O)OC1C(=O)C2OC3C=C(C)C(=O)CC3(COC(C)=O)C1(C)C21CO1 (stereo unspecified)
inactive: [1] 37.8% | [2] 7.5% | [3] 17.5% | [4] 14.9% | [5] -12.2% | [6] -17.1%

CN(C)[P+](On1nnc2ccccc21)(N(C)C)N(C)C
inactive: [1] 11.6% | [2] -1.9% | [3] 14% | [4] 12.3% | [5] -2.25% | [6] -0.95%

NC(CCc1ccc(N(CCCl)CCCl)cc1)C(=O)O (stereo unspecified)
inactive: [1] 5.8% | [2] -5.35% | [3] 0.1% | [4] 4.85% | [5] -23.6% | [6] -0.2%

O=C(O)C(CCS)N(c1ccc([N+](=O)[O-])cc1[N+](=O)[O-])c1ccc([N+](=O)[O-])cc1[N+](=O)[O-] (stereo unspecified)
inactive: [1] -4.55% | [2] 4.3% | [3] -5.25% | [4] -8.5% | [5] -0.8% | [6] -20.6%

NCCc1ccc(N(CCCl)CCCl)cc1
inactive: [1] 8.5% | [2] 35.8% | [3] -4.1% | [4] -2.35% | [5] 7.6% | [6] 15.6%

O=C(CF)Nc1ccc(N(CCCl)CCCl)cc1
inactive: [1] 2.4% | [2] -7.9% | [3] -27.1% | [4] -18.4% | [5] -36.8% | [6] -34.3%

O=[N+]([O-])c1ccc(C[As](=O)(O)O)cc1
inactive: [1] 11.3% | [2] 15.8% | [3] 5.7% | [4] -24.1% | [5] -14.1% | [6] 5.7%

CC(C)CO[P+](=O)OCC(C)C
inactive: [1] -5% | [2] -6.85% | [3] 20.6% | [4] 7.55% | [5] 7.6% | [6] 0.55%

Cc1ccc(OP(=O)(Cl)Oc2ccc(C)cc2)cc1
inactive: [1] -10.4% | [2] -24.5% | [3] 0.35% | [4] 6.5% | [5] -9.4% | [6] 8.95%

NCCC(N)CSP(=O)(O)O (stereo unspecified)
inactive: [1] 6% | [2] -22.2% | [3] -31.1% | [4] -5.3% | [5] -27.7% | [6] -14.4%

[N-]=[N+]=NC/C(N)=N/O
inactive: [1] 6.4% | [2] -7.6% | [3] 7.15% | [4] 3.1% | [5] 4.9% | [6] -29.4%

O=[N+]([O-])c1ccc(SC2CCCCC2Cl)c([N+](=O)[O-])c1 (stereo unspecified)
inactive: [1] -5.2% | [2] -19.1% | [3] -19.9% | [4] -45.5% | [5] -5.15% | [6] 0.2%

CC(=N\N=C(/N)N[N+](=O)[O-])/C(C)=N/N=C(\N)N[N+](=O)[O-]
inactive: [1] 5.9% | [2] 25.6% | [3] 3.6% | [4] -1.25% | [5] 38.2% | [6] 26.6%

O=[N+]([O-])c1ccc(NP(=O)(Oc2ccccc2)Oc2ccccc2)nc1
inactive: [1] 3.15% | [2] -4.35% | [3] 9.15% | [4] -55.4% | [5] 14.9% | [6] 0.55%

O=[N+]([O-])c1ccc(N=Nc2c(O)[nH]c3ccc([N+](=O)[O-])cc23)c([N+](=O)[O-])c1
inactive: [1] -13.9% | [2] -15.2% | [3] -8.8% | [4] 4.9% | [5] -33.5% | [6] -40.6%

CN1C(=O)CC(C(=O)OC2CN3CCC2CC3)CC1=O (stereo unspecified)
inactive: [1] -14.2% | [2] -4.65% | [3] -10.3% | [4] -16.9% | [5] -0.3% | [6] 4.35%

CN(CCCl)c1ccccc1
inactive: [1] -14% | [2] 1.35% | [3] -15.2% | [4] -14.4% | [5] -14.2% | [6] -27.7%

CCCNC(=O)c1ccc(N(CCCl)CCCl)cc1
inactive: [1] 12.7% | [2] 11.8% | [3] -39.8% | [4] -22.1% | [5] -38.2% | [6] -16.3%
